Assay [1] has as its target Serine/threonine-protein kinase PAK 2 (Homo sapiens) (UniProt Q13177). In words: Binding affinity to PAK2 (unknown origin) at 300 nM by KINOMEscan analysis relative to control.
The target in assay [2] is Cannabinoid receptor 1 (Homo sapiens) (UniProt P21554). In words: Agonist activity at human CB1 receptor at 10 uM by CEREP SafetyScreen44 panel analysis relative to control. The settings on record: filed as agonist. The assay is classed as functional.
The target in assay [3] is T1, Calcium/calmodulin-dependent protein kinase type IV (Homo sapiens) (UniProt Q16566).
T1 sequence (whole entry): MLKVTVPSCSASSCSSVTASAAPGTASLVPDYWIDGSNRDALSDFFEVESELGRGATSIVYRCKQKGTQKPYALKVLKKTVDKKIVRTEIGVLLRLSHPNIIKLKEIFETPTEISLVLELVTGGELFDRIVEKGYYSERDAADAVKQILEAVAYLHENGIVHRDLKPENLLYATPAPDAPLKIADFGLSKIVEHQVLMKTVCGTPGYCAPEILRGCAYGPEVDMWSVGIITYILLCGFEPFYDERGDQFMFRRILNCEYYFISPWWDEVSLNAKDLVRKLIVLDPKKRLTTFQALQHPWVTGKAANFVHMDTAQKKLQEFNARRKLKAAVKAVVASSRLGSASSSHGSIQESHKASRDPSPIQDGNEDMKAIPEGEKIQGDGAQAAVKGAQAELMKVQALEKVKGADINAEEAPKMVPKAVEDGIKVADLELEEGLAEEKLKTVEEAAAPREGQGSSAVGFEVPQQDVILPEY
In words: Binding affinity to CaMKIV (unknown origin) at 300 nM by KINOMEscan analysis relative to control.

By UniProt entry, the sequences of proteins in these tests, tags left out. Where a name states a change or a piece, a line headed by the entry shows the natural chain unless it says otherwise.
UniProt P21554, whole entry: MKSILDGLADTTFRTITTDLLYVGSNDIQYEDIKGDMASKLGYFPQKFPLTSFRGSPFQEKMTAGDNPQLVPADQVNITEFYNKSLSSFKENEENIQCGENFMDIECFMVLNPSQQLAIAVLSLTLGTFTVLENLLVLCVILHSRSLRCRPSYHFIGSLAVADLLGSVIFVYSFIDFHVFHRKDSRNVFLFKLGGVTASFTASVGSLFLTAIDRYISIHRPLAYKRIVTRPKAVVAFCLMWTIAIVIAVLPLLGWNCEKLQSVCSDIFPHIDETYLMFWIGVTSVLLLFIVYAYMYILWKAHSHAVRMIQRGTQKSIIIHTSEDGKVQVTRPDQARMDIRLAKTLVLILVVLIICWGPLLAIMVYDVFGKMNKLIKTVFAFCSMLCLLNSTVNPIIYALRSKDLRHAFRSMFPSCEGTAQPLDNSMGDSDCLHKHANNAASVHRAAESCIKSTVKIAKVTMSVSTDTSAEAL
UniProt Q5VT25: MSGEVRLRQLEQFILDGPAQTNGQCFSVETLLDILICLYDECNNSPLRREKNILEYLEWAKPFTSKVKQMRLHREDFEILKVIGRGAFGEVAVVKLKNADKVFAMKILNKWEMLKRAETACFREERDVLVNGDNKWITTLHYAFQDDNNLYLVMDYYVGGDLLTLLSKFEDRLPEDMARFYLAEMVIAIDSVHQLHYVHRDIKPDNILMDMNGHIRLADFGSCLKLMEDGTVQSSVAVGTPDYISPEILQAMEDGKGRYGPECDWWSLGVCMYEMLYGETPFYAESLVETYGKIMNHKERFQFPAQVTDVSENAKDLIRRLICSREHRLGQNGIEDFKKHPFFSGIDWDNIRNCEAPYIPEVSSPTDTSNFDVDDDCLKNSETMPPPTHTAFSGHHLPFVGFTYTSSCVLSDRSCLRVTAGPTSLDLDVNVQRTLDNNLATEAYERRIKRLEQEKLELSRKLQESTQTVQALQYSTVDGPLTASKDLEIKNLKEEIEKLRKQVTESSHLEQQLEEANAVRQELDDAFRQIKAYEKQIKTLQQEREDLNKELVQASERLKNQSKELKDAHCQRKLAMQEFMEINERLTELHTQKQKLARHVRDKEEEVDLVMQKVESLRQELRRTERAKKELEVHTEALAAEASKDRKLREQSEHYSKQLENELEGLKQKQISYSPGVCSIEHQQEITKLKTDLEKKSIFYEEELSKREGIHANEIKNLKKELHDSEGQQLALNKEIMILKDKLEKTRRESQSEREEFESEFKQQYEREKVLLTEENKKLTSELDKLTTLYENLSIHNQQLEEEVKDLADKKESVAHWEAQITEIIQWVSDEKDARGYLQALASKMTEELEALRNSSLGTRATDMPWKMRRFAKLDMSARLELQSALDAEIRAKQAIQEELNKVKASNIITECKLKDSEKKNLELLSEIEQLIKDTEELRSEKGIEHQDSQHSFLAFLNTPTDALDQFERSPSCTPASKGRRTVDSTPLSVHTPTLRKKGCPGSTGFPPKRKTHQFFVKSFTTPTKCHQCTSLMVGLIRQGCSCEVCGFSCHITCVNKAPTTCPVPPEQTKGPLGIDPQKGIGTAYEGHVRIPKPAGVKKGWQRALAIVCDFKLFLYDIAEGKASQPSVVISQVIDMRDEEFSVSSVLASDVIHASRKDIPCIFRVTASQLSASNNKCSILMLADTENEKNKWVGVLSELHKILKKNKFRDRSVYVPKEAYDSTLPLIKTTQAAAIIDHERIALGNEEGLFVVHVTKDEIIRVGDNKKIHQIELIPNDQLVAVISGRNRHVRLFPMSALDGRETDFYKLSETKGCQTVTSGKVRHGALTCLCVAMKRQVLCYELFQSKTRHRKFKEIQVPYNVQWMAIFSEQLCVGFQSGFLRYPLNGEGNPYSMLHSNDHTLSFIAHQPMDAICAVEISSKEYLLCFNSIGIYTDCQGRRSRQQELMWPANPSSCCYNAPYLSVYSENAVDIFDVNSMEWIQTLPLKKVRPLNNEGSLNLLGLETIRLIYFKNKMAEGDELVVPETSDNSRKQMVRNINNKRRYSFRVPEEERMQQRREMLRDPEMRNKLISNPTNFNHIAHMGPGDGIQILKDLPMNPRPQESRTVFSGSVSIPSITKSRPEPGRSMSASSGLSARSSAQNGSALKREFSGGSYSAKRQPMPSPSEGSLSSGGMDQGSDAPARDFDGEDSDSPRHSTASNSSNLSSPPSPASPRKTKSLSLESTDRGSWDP
UniProt O75116: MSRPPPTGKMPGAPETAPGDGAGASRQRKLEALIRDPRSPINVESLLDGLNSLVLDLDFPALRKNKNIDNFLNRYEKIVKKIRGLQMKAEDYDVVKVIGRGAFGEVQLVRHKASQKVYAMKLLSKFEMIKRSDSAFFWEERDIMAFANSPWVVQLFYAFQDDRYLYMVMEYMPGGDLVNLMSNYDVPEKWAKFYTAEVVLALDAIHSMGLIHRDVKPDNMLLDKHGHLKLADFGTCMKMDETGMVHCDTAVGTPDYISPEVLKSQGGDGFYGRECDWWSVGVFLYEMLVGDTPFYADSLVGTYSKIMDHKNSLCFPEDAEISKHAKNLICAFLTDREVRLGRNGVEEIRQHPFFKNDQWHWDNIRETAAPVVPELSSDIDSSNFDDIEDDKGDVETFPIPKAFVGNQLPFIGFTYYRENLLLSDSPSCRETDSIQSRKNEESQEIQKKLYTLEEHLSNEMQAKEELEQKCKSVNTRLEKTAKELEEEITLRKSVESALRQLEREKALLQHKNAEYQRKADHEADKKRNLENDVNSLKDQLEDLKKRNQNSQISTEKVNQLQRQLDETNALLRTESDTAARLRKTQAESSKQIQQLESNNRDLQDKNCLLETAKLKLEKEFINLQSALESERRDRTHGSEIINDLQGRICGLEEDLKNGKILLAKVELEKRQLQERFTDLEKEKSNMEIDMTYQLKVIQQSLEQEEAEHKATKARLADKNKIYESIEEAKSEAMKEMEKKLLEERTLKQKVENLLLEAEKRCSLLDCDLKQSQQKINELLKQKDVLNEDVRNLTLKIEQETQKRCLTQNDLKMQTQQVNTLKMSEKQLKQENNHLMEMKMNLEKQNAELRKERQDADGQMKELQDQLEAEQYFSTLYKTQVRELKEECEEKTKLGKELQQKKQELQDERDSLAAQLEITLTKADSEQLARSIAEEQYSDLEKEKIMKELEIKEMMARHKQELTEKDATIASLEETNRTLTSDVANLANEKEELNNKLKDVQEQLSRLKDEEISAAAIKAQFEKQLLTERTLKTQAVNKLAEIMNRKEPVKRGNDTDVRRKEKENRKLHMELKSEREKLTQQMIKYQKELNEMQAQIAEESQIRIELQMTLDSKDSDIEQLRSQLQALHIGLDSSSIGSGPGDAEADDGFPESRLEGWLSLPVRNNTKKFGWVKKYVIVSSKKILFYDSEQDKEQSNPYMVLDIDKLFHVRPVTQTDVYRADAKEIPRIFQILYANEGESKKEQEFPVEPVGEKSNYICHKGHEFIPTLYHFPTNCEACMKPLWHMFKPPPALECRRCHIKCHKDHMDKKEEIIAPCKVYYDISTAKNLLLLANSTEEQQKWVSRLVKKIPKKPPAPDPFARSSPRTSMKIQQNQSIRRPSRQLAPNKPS
UniProt Q15569: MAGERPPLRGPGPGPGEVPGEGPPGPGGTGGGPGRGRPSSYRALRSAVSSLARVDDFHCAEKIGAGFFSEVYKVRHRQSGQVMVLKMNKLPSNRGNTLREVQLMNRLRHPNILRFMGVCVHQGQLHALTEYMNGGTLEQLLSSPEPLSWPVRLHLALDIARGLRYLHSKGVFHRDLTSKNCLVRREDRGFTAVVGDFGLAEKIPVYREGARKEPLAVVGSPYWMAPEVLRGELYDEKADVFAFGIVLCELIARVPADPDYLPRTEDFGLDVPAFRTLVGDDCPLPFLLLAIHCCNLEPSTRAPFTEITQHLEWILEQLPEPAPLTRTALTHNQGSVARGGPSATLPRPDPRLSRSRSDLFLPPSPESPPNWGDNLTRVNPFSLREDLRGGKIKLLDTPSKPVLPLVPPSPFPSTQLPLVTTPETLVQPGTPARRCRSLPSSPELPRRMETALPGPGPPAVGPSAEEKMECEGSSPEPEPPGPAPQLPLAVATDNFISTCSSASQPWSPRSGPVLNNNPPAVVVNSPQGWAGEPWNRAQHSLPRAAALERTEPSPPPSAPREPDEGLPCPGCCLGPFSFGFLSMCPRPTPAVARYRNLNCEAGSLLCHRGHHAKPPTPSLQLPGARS
UniProt Q13464: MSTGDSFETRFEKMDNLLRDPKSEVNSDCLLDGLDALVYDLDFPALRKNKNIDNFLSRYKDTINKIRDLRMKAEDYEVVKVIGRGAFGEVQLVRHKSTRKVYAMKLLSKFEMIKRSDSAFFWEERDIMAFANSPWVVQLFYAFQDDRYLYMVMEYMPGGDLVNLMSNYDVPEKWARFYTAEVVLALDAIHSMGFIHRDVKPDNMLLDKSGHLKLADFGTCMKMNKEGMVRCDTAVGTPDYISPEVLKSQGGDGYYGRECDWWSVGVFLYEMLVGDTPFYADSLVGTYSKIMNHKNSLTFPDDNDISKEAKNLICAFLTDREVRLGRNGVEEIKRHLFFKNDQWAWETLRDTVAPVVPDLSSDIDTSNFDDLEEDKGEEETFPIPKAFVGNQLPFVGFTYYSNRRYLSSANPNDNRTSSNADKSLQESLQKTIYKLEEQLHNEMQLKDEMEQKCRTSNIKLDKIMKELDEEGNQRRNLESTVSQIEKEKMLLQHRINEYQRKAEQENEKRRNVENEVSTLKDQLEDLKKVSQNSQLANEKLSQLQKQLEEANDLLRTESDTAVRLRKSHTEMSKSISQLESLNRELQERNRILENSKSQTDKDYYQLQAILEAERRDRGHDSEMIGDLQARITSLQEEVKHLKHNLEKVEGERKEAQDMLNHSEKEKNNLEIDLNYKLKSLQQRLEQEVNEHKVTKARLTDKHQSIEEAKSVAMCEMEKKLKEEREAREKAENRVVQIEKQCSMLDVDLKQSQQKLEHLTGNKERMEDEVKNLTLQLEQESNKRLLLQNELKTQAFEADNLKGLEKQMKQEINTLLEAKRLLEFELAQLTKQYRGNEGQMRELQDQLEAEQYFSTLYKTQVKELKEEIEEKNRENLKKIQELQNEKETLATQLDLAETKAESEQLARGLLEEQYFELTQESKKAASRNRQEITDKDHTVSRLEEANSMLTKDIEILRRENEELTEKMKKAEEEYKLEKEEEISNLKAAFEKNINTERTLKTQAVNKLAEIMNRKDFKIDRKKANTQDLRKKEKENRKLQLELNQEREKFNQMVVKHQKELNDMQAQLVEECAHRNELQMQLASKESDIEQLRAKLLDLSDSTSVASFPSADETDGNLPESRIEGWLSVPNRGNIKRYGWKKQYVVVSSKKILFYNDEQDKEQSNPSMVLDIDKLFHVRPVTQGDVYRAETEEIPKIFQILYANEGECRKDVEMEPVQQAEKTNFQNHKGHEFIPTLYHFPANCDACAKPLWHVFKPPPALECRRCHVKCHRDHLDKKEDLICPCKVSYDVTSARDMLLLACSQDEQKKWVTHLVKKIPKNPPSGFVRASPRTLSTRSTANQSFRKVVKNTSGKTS
UniProt Q13153, whole entry: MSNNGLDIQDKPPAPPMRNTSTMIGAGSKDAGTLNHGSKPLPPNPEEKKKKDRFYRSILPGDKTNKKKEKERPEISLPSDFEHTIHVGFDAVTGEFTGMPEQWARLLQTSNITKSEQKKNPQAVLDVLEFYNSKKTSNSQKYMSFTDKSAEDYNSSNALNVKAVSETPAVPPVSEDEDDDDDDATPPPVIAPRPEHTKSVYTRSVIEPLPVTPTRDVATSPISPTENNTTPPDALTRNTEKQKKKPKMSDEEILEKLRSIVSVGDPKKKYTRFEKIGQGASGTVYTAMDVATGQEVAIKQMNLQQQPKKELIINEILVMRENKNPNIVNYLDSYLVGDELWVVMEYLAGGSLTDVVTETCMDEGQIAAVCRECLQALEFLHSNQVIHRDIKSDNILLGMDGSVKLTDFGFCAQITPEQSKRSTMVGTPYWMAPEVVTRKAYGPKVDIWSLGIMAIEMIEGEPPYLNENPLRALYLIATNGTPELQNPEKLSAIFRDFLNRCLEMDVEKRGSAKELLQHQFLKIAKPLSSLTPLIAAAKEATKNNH

Assay [4] has as its target Serine/threonine-protein kinase MRCK alpha (Homo sapiens) (UniProt Q5VT25). In words: Binding affinity to MRCK-alpha (unknown origin) at 300 nM by KINOMEscan analysis relative to control.
The target of assay [5] is Rho-associated protein kinase 2 (Homo sapiens) (UniProt O75116). In words: Binding affinity to ROCK2 (unknown origin) at 300 nM by KINOMEscan analysis relative to control.
The target in assay [6] is Dual specificity testis-specific protein kinase 1 (Homo sapiens) (UniProt Q15569). In words: Binding affinity to TESK1 (unknown origin) at 300 nM by KINOMEscan analysis relative to control.
For assay [7], the target named is Serine/threonine-protein kinase PAK 4 (Homo sapiens) (UniProt O96013). In words: Binding affinity to PAK4 (unknown origin) at 300 nM by KINOMEscan analysis relative to control.
For assay [8], the target named is Rho-associated protein kinase 1 (Homo sapiens) (UniProt Q13464). In words: Binding affinity to ROCK1 (unknown origin) at 300 nM by KINOMEscan analysis relative to control.
The target of assay [9] is Serine/threonine-protein kinase PAK 1 (Homo sapiens) (UniProt Q13153). In words: Binding affinity to PAK1 (unknown origin) at 300 nM by KINOMEscan analysis relative to control.

Our source for the Activity values is ChEMBL document CHEMBL6087457.

Structures are written as SMILES. Active and inactive are the calls of the source. The rule behind the calls is not given here.

Take `O=C(c1ccc(S(=O)(=O)Nc2ccccc2)cc1)N(Cc1ccc(NCCO)cc1)CC1CC1`: the result in assay [1], in assay [3], in [4], in assay [5], in assay [6] and in assay [7] was inactive. For the same molecule, the result in assay [8] and in assay [9] was inactive. This molecule returned an Activity in [2] of more than 50%.
